Experimental data as given in publication PMC8929351 (Pharmacology Research & Perspectives, 2022).

Sequences of proteins named here, by UniProt entry; tags and fusion partners are left off.
UniProt P35372, whole entry A6V: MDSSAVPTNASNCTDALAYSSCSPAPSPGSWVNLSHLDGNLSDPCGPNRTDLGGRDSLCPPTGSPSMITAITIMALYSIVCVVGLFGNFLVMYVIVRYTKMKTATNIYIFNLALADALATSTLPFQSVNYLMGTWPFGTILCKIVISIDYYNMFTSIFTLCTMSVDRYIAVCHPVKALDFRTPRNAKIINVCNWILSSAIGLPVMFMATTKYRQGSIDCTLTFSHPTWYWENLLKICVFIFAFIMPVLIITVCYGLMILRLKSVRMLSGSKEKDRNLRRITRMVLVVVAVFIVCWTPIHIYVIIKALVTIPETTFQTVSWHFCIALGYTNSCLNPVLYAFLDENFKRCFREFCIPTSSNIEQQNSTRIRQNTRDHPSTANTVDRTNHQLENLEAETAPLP
UniProt P35372, whole entry N40D: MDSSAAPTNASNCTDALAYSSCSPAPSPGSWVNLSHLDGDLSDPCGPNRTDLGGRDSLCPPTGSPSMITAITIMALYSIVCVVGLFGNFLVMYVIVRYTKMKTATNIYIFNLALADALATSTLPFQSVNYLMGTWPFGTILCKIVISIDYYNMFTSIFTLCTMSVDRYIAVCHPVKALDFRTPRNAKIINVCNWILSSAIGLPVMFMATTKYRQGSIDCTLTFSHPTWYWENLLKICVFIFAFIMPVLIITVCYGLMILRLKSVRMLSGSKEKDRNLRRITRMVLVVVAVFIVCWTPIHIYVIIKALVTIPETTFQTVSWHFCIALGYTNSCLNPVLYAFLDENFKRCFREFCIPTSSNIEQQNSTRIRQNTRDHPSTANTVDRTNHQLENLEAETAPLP
UniProt P35372, whole entry: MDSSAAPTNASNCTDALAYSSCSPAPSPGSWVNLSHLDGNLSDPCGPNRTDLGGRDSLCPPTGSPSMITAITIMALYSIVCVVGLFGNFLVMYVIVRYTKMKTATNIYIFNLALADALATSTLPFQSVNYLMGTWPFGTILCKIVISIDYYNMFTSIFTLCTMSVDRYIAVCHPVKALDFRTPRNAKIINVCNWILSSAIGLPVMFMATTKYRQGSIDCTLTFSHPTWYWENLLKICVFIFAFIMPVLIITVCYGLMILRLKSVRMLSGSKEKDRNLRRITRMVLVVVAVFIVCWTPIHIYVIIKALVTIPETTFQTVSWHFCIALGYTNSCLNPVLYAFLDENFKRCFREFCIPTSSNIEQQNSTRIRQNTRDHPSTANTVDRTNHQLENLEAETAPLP

Tests used:
OPRM1 knock‐out mice = settings: mouse, in vivo; cited from earlier work
µ receptor = settings: operational model, five different studies; cited from earlier work
human µ receptor A6V = human µ receptor A6V (Homo sapiens, UniProt P35372, A6V); type: cell-based
human µ receptor N40D = human µ receptor N40D (Homo sapiens, UniProt P35372, N40D); type: cell-based
[1] = biological target: human µ receptor wild‐type (WT) (Homo sapiens, UniProt P35372); type: cell-based

| Structure (SMILES) | analgesic effect (OPRM1 knock‐out mice) | average intrinsic efficacy relative to DAMGO (µ receptor) | Relative tau (intrinsic efficacy relative to DAMGO) (human µ receptor A6V) | pKA (human µ receptor A6V) | Relative tau (intrinsic efficacy relative to DAMGO) (human µ receptor N40D) | pKA (human µ receptor N40D) | Relative tau (intrinsic efficacy relative to DAMGO) [1] | pKA [1] |
| --- | --- | --- | --- | --- | --- | --- | --- | --- |
| CN1CC[C@]23c4c5ccc(O)c4O[C@H]2[C@@H](O)C=C[C@H]3[C@H]1C5 [Morphine] | completely abolished | 0.19 ± 0.08 | – | – | – | – | – | – |
| CN(C)C[C@H]1CCCC[C@]1(O)c1cccc(O)c1 [O‐Tramadol, O‐desmethyl tramadol] | – | – | 0.08 ± 0.04 | 5.55 ± 0.3 | 0.03 ± 0.00 | 5.38 ± 0.34 | 0.08 ± 0.02 | 5.33 ± 0.4 |
